Antibody variant affinities, Ab-14 light chain, assay 1

From the AlphaSeq antibody data of Engelhart et al. 2022 (doi:10.1038/s41597-022-01779-4), copy in the FLAb collection.

All variants were tested on one target, the spike HR2 peptide PDVDLGDISGINAS (SARS-CoV-2).

Parent: Ab-14, a human scFv built as VH, three GGGGS repeats, VL. Only the CDRs of the light chain vary.
VH: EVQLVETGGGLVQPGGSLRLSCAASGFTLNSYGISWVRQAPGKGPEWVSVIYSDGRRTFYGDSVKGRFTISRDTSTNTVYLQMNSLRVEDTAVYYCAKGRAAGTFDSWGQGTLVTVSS
VL: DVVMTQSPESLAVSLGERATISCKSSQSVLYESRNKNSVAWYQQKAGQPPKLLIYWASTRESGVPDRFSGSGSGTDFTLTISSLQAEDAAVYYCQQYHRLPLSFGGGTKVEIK

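Phage display of a naive human antibody library on the peptide gave the parent. AAYL50 was designed without a model: most single CDR substitutions and a random sample of double and triple ones. In AlphaSeq, yeast of one mating type display the scFv and yeast of the other type display the target. Mating (16 h, 30 °C) was followed by selection of diploids and sequencing of their barcodes. The ratio of observed to expected reads was calibrated, replicate by replicate, on BCL2-family standards whose Kd was known from biolayer interferometry. There are three technical replicates.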

Positions count from residue 1 of the parent VL; E32K puts K in place of E. Values are log10 of the apparent Kd in nM; lower means stronger binding. Averages over replicates are reported, and they cover detected replicates only. An entry "nd" has no value in the source: the pair was not observed among the diploids in that replicate. This suggests poor binding but is not conclusive. Parent in this assay: reference entry 0.65, copy in this library 1.68. Empty control strains, which show no peptide, gave a signal in 18% of pairings with library AAYL50; the median was 4.19 and 95% of these signals were weaker than 2.99. No background was subtracted. For each scFv, signals with the empty controls are counted beside the result, with their mean in brackets.

changes,"log10 Kd, replicates","mean, log10 nM",control signals
E32K A57P R99I,nd nd nd,nd,0 of 9
S25I A57W L100D,nd nd nd,nd,0 of 9
E32G R60M,nd nd nd,nd,0 of 9
S25Q R60I R99G,3.27 nd nd,3.27,0 of 9
S38R V39R Q95W,5.61 5.35 4.78,5.25,4 of 9 (5.16)
S38F V39E S62V,nd nd nd,nd,0 of 9
S26M V29S R34A,0.17 0.48 0.56,0.40,1 of 9 (3.99)
S26R S38E L100E,3.55 3.86 4.15,3.85,4 of 9 (4.76)
Q95H H98T P101E,nd 3.74 nd,3.74,0 of 9
Y31A E32M N35C,nd 3.26 3.74,3.50,2 of 9 (3.20)
S62Q Q95C Q96H,nd 5.43 4.40,4.91,3 of 9 (4.44)
K24Q Q27S S33K,2.75 2.97 3.19,2.97,3 of 9 (4.33)
R34D A40Y S62T,nd nd nd,nd,0 of 9
Q27I N37Y W56A,0.40 0.56 0.65,0.53,1 of 9 (4.88)
S38H Y97H H98S,4.58 3.36 nd,3.97,0 of 9
S26P S38W R99V,nd 2.22 nd,2.22,0 of 9
A40G R60F H98V,nd nd nd,nd,3 of 9 (4.20)
V29W T59N E61K,nd nd nd,nd,0 of 9
S33N R34Q T59G,nd 2.39 nd,2.39,0 of 9
S62C R99E,1.50 1.50 1.90,1.63,0 of 9
W56L S58F S62L,nd nd 2.98,2.98,2 of 9 (3.51)
Q27K E32S A57M,2.20 2.63 nd,2.41,1 of 9 (3.62)
S25H V39F S58I,4.12 nd nd,4.12,0 of 9
S28W S33G,1.19 1.36 1.27,1.27,1 of 9 (5.65)
S25D R34L N37F,2.48 2.42 2.58,2.50,1 of 9 (4.29)
S25C S58L R60S,nd 3.90 nd,3.90,0 of 9
K24F N37D Q95A,1.85 1.71 2.17,1.91,2 of 9 (3.93)
Q27C A40M R99W,5.27 nd nd,5.27,1 of 9 (4.44)
S33T L102I,1.82 2.02 1.83,1.89,1 of 9 (2.71)
Q27M V39E H98V,nd nd 3.45,3.45,2 of 9 (4.03)
S25A S33N Q96S,0.40 0.75 0.77,0.64,0 of 9
S26K E61Y R99G,4.05 3.58 3.62,3.75,3 of 9 (4.43)
V39R W56I Q96S,nd nd nd,nd,4 of 9 (4.29)
S38A T59I L100M,1.22 1.45 1.48,1.39,2 of 9 (3.33)
K24A Y97D S103A,nd 5.00 nd,5.00,2 of 9 (3.47)
W56T Q96D Y97H,nd nd nd,nd,0 of 9
S28Y T59R Y97V,nd nd nd,nd,0 of 9
N37G A57V R99H,1.33 1.31 1.54,1.39,2 of 9 (3.97)
S33G H98T,0.54 1.14 0.82,0.83,1 of 9 (2.15)
Q27E V29C K36H,1.05 1.25 1.22,1.17,1 of 9 (4.54)
K36W E61N R99Y,nd 3.92 4.51,4.22,4 of 9 (3.79)
E32V S33C Q96Y,nd nd nd,nd,3 of 9 (4.88)
S28G Y31C N35T,3.86 2.29 2.98,3.05,1 of 9 (4.34)
N37I Y97R L100I,nd nd nd,nd,0 of 9
S58R L100Y P101C,2.68 2.64 2.62,2.64,2 of 9 (4.68)